Patent US11963964B2, “Small molecules for mouse satellite cell proliferation” (President and Fellows of Harvard College, priority 2011, dated 2024)

Test system: satellite cells
Assay: Satellite cell proliferation screen and dose response, image-based cell count
Design: species or system mouse
Details: retest; DMSO-treated cells 1±0.3 in both trials

With `CCN(CC)CCNC(=O)c1c(C)[nH]c(/C=C2\C(=O)Nc3ccc(F)cc32)c1C` [Sunitinib] as the compound, how does the “proliferation of the input SMP cells (level)” value read?
Its value is ~4.7±1.4.
